We go through one compound from ChEMBL document CHEMBL2440009, “Discovery of GSK2656157: An Optimized PERK Inhibitor Selected for Preclinical Development” (ACS Med Chem Lett, 2013).

SMILES strings stand for the structures. Bounds are passed on as bounds.

In the assay the target is T1, Eukaryotic translation initiation factor 2-alpha kinase 3 (Homo sapiens, UniProt Q9NZJ5).
T1 sequence (Q9NZJ5 whole entry): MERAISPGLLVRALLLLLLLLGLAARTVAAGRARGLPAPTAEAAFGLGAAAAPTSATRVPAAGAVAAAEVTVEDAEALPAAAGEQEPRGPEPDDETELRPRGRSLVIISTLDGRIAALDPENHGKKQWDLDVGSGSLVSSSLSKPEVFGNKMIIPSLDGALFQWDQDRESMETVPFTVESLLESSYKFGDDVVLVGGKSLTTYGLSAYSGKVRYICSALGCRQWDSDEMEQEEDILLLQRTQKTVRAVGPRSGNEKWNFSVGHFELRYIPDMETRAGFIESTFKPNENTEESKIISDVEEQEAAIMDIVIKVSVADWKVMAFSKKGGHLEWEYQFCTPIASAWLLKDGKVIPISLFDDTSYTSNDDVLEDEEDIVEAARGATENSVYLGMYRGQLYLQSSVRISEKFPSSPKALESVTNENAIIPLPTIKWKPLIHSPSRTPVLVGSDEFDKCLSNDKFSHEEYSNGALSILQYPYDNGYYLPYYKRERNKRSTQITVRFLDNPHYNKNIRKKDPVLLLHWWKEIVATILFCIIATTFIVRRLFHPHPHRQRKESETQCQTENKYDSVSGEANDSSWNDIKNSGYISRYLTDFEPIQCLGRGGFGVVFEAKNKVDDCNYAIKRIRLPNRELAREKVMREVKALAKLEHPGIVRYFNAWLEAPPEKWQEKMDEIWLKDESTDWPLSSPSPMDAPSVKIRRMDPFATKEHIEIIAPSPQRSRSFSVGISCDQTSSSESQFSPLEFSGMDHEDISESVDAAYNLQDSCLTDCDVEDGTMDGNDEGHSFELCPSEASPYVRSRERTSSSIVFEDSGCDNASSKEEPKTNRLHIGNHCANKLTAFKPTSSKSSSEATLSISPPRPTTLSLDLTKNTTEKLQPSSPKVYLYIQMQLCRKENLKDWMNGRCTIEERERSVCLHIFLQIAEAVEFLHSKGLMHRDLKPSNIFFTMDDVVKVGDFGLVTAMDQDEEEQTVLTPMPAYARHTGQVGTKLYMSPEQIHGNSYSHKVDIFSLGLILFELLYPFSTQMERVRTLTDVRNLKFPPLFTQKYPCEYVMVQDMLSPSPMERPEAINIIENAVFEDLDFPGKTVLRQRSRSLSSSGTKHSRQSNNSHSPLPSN
The experiment in a line: Inhibition of thapsigargin-induced autophosphorylation of PERK in human A549 cells preincubated for 1 hr followed by thapsigargin-induction measured after 1 hr by Western blotting analysis. It is filed as cell-based. A general note: Immunoblotting shows a protein as a band on a membrane.

The term IC50 denotes the concentration that inhibits the measured activity by half. On to `Cn1cc(-c2ccc3c(c2)CCN3C(=O)Cc2cccc(C(F)(F)F)c2)c2c(N)ncnc21`, for which the half-maximal inhibitory concentration (IC50) was less than 30 nM.
